{"source": "PubChem BioAssay AID602248", "about": "(The Scripps Research Institute Molecular Screening Center, 2012)", "note": "The entries are a selection whose mix differs from that of the whole data set. The source made the active and inactive calls. Rule as the data show it: active = activation above about 15%; inactive = the rest."}
{"assay": "counter-screen for M1 agonists: effect in parental CHO-K1 cells (AID 602248);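 also: untransfected CHO-K1 host cells lacking M1 receptor as counterscreen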", "details": "Fluo-8 calcium fluorescence, at 3 µM, stronger effect = higher value, scaled to maximal ATP response, vehicle zero"}
{"compound": "COc1ccc(OP(C)(=O)Nc2cccc(F)c2)cc1", "note": "(centres undefined)", "activation": "inactive: -0.33%"}
{"compound": "COc1ccccc1OP(C)(=O)Nc1cc(Cl)ccc1C", "note": "(centres undefined)", "activation": "inactive: 1.14%"}
{"compound": "Cc1cc(C)cc(OP(C)(N)=O)c1", "note": "(centres undefined)", "activation": "inactive: -0.44%"}
{"compound": "CCOC(=O)c1ccc(NP(C)(=O)Oc2ccccc2)cc1", "note": "(centres undefined)", "activation": "inactive: 2.03%"}
{"compound": "Cc1ccc(NP(C)(=O)Oc2ccccc2)c(C)c1", "note": "(centres undefined)", "activation": "inactive: 0.93%"}
{"compound": "COc1ccccc1OP(C)(=O)Nc1ccc(C)cc1", "note": "(centres undefined)", "activation": "inactive: -0.42%"}
{"compound": "Cc1cccc(C)c1OP(C)(N)=O", "note": "(centres undefined)", "activation": "inactive: -0.05%"}
{"compound": "CC(C)(C)c1ccc(OP(C)(=O)Nc2ccc(SC(F)(F)F)cc2)cc1", "note": "(centres undefined)", "activation": "inactive: 0.33%"}
{"compound": "O=[N+]([O-])c1ccc2c(c1)C=Nc1ccccc1O2", "activation": "inactive: 1.42%"}
{"compound": "O=[N+]([O-])c1cc([N+](=O)[O-])c(Nc2cccnc2)c([N+](=O)[O-])c1", "activation": "inactive: 13.5%"}
{"compound": "COc1cc(C(=O)NCC2(N3CCOCC3)CCCCC2)ccc1OCC(C)C", "activation": "inactive: -0.38%"}
{"compound": "COc1ccccc1-c1ccccn1.O=[N+]([O-])c1cc([N+](=O)[O-])c(O)c([N+](=O)[O-])c1", "activation": "inactive: 0.55%"}
{"compound": "CCN(CC)CCCOC(=O)C(O)(c1ccccc1)c1ccccc1", "activation": "inactive: 0.35%"}
{"compound": "CP(=O)(Nc1ccccn1)Oc1ccc(Cl)cc1", "note": "(centres undefined)", "activation": "inactive: 1.31%"}
{"compound": "CCOP(C)(=S)SCC(=O)NC(C)C(=O)O", "note": "(centres undefined)", "activation": "inactive: 0.32%"}
{"compound": "O=[N+]([O-])c1cc([N+](=O)[O-])c(O)c([N+](=O)[O-])c1.c1ccc(Oc2ccncc2)cc1", "activation": "inactive: 0.34%"}
{"compound": "CCOC(=O)c1ccc(NP(C)(=O)Oc2ccc(OC)cc2)cc1", "note": "(centres undefined)", "activation": "inactive: 2.23%"}
{"compound": "Cc1cc(C)cc(OP(C)(=O)Nc2ccc(SC(F)(F)F)cc2)c1", "note": "(centres undefined)", "activation": "inactive: -0.27%"}
{"compound": "CCc1ccc(OP(C)(=O)N2CCN(c3ccc([N+](=O)[O-])cc3)CC2)cc1", "note": "(centres undefined)", "activation": "inactive: 13%"}
{"compound": "CP(=O)(NC(=O)Nc1ccccc1)Oc1ccccc1", "note": "(centres undefined)", "activation": "inactive: -0.15%"}
{"compound": "CP(=O)(Oc1ccccc1)OC(c1ccccc1)C(F)(F)F", "note": "(centres undefined)", "activation": "active: 22%"}
{"compound": "CP(=O)(Nc1ccc(SC(F)(F)F)cc1)Oc1ccc(Cl)cc1", "note": "(centres undefined)", "activation": "inactive: 1.26%"}
{"compound": "Cc1cccc(C)c1OP(C)(=O)Nc1ccc(SC(F)(F)F)cc1", "note": "(centres undefined)", "activation": "inactive: 1.02%"}
{"compound": "Cc1ccc(Nc2c([N+](=O)[O-])cc([N+](=O)[O-])cc2[N+](=O)[O-])cc1", "activation": "inactive: 8.29%"}
{"compound": "COc1ccccc1OP(C)(=O)Nc1ccccc1", "note": "(centres undefined)", "activation": "inactive: -0.34%"}
{"compound": "CP(=O)(Nc1ccccc1Br)Oc1ccccc1", "note": "(centres undefined)", "activation": "inactive: 1.33%"}
{"compound": "CP(=S)(Nn1cnnc1)Oc1ccccc1", "note": "(centres undefined)", "activation": "inactive: 0.04%"}
{"compound": "CCCCOc1ccc(C(=O)NCC2(N3CCCCC3)CCCCC2)cc1OC", "activation": "inactive: 1.1%"}
{"compound": "CP(=O)(Nc1ccc(SC(F)(F)F)cc1)Oc1ccccc1", "note": "(centres undefined)", "activation": "inactive: 2.47%"}
{"compound": "CCCOc1ccc(NP(C)(=O)Oc2ccc(Cl)cc2)cc1", "note": "(centres undefined)", "activation": "inactive: 0.26%"}
{"compound": "COc1ccc(-c2ccccn2)cc1.O=[N+]([O-])c1cc([N+](=O)[O-])c(O)c([N+](=O)[O-])c1", "activation": "inactive: 0.4%"}
{"compound": "CN1CCCCC1COC(=O)C1(O)c2ccccc2CCc2ccccc21", "note": "(centres undefined)", "activation": "inactive: 0.73%"}
{"compound": "COc1ccccc1OP(C)(=O)Nc1c(C)cccc1C", "note": "(centres undefined)", "activation": "inactive: 1.13%"}
{"compound": "CCOC(=O)C(CC)C1=NC(C)(C)Cc2ccccc21.O=[N+]([O-])c1cc([N+](=O)[O-])c(O)c([N+](=O)[O-])c1", "note": "(centres undefined)", "activation": "inactive: -0.27%"}
{"compound": "O=[N+]([O-])c1cc([N+](=O)[O-])c(Nc2nnnn2CCO)c([N+](=O)[O-])c1", "activation": "inactive: 1.6%"}
{"compound": "CC1=C2N=C(C=C3N=C(C(C)=C4[N-][C@@](C)([C@@H]5N=C1[C@](C)(CCC(=O)NC[C@@H](C)OP(=O)([O-])O[C@H]1[C@@H](O)[C@@H](n6cnc7cc(C)c(C)cc76)O[C@@H]1CO)[C@H]5CC(N)=O)[C@@](C)(CC(N)=O)[C@@H]4CCC(N)=O)[C@@](C)(CC(N)=O)[C@@H]3CCC(N)=O)C(C)(C)[C@@H]2CCC(N)=O.[C-]#N.[Co+3]", "activation": "inactive: 0.5%"}
{"compound": "CN(C)C1(CNC(=O)c2ccc(S(C)(=O)=O)cc2)CCCCC1", "activation": "inactive: 0.46%"}
{"compound": "Cc1nc2ccc3ccccc3c2s1.O=[N+]([O-])c1cc([N+](=O)[O-])c(O)c([N+](=O)[O-])c1", "activation": "inactive: 0.32%"}
{"compound": "O=[N+]([O-])c1cc([N+](=O)[O-])c(-c2cnn(-c3ccccc3)c2)c([N+](=O)[O-])c1", "activation": "inactive: 2.63%"}
{"compound": "CN(Cc1cccnc1)C(=O)COc1ccc(Cl)c(Cl)c1.O=[N+]([O-])c1cc([N+](=O)[O-])c(O)c([N+](=O)[O-])c1", "activation": "inactive: 2.07%"}
{"compound": "O=[N+]([O-])c1cc([N+](=O)[O-])c(-n2nnc3ccccc32)c([N+](=O)[O-])c1", "activation": "inactive: -0.58%"}
{"compound": "CP(=O)(Nc1cccc(Br)c1)Oc1ccccc1", "note": "(centres undefined)", "activation": "inactive: 1.81%"}
{"compound": "Cc1cc(C)cc(OP(C)(=O)Nc2ccccn2)c1", "note": "(centres undefined)", "activation": "inactive: -0.31%"}
{"compound": "Cc1ccc(C)c(NP(C)(=O)Oc2ccccc2)c1", "note": "(centres undefined)", "activation": "inactive: 0.47%"}
{"compound": "Cc1cc(C)cc(OP(C)(=O)Nc2ccc(C)cc2C)c1", "note": "(centres undefined)", "activation": "inactive: 1.05%"}
{"compound": "CCOC(=O)c1ccc(NP(C)(=O)Oc2cc(C)cc(C)c2)cc1", "note": "(centres undefined)", "activation": "inactive: 0.59%"}
{"compound": "COc1ccccc1OP(C)(=O)Nc1cccc(Br)c1", "note": "(centres undefined)", "activation": "inactive: 0.44%"}
{"compound": "COc1cc(C(=O)NCC2(N3CCOCC3)CCCCC2)cc(Cl)c1OC(C)C", "activation": "inactive: -0.36%"}
{"compound": "CC1=NCCc2c1[nH]c1ccccc21.O=[N+]([O-])c1cc([N+](=O)[O-])c(O)c([N+](=O)[O-])c1", "activation": "inactive: 0.37%"}
{"compound": "O=C(O)c1cccc(Nc2c([N+](=O)[O-])cc([N+](=O)[O-])cc2[N+](=O)[O-])c1", "activation": "inactive: 0.87%"}
{"compound": "CCCCCOc1ccc(NP(C)(=O)Oc2ccc(Cl)cc2Cl)cc1", "note": "(centres undefined)", "activation": "inactive: 9%"}
{"compound": "O=[N+]([O-])c1cc([N+](=O)[O-])c(OC2CCCCC2O)c([N+](=O)[O-])c1", "note": "(centres undefined)", "activation": "inactive: 0.7%"}
{"compound": "CP(=O)(Nc1ccccc1)Oc1ccc(F)cc1", "note": "(centres undefined)", "activation": "inactive: 0.9%"}
{"compound": "CCN(CC)CCCOC(=O)C(O)(c1ccccc1)C1CCCCC1", "note": "(centres undefined)", "activation": "inactive: 0.99%"}
